These are literature values, as cited in publication PMC5488175, “A New Methodology for Incorporating Chiral Linkers into Stapled Peptides” (Chembiochem, 2017).

The conditions of this data set: cited from earlier work. From the text: The A isomers of peptides stapled with linker 1, with the except ...

As for “wild‐type p53_17–29 peptide: wild-type p53 peptide, residues 17–29”, the “Helicity reported for the wild-type peptide” value is 10%.
